## Antibody variant affinities, Ab-95 light chain, assay 2

Reference: Engelhart et al. 2022, doi:10.1038/s41597-022-01779-4. File: FLAb, binding data.

Binding partner: SARS-CoV-2 spike HR2 peptide, sequence PDVDLGDISGINAS.

The variants keep the heavy chain, the linker and the frameworks of Ab-95 (scFv order VH, three GGGGS repeats, VL).
VH: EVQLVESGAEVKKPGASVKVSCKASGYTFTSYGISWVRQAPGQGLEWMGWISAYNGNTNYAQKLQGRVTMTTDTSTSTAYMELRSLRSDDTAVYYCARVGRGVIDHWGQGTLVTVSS
VL: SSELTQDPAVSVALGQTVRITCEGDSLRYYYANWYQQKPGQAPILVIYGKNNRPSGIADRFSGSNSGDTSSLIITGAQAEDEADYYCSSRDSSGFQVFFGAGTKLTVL

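The parent was found by panning a naive human phage display library on the peptide. The library (AAYL52) carries one to three amino acid substitutions per variant, with no insertions or deletions. The scFvs were displayed on barcoded MATa yeast, the peptide on MATalpha yeast. The frequency of each diploid, read from paired DNA barcodes, reflects how well the two displayed proteins bind. Each replicate has its own calibration line, from reference interactions of the BCL2 family. Each pool was mated in three replicate cultures.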

The parent's light chain CDRs are EGDSLRYYYAN, GKNNRPS, SSRDSSGFQVF; each variant's own CDRs replace them letter for letter. Scale: log10 of Kd in nM, estimated from mating counts; low values are strong binders. A mean of the replicates is given; it leaves out those without a signal. A pair that was not seen in that replicate is written "ND"; this usually means weak binding, but a binder can also be missed. Parent in this assay: reference entry 2.31, copy in this library 2.25. Empty control strains, which show no peptide, gave a signal in 28% of pairings with library AAYL52; the median was 3.91 and 95% of these signals were weaker than 2.90. No background was subtracted. Also given: how often the same scFv was detected with the empty control strains.

With EGDSLRYYYAN, GKNQRPS, SSHDFSGFQVF the result was ND, 4.49, ND (controls 4 of 9).
With EGDVLRYYYAN, GKNNGPS, SRRDSSGFQVF the result was 2.77, 4.77, ND (mean 3.77; controls 7 of 9).
With EGDSLRYYYAC, GKNNRPS, SSRDSSGFAVM the result was ND, 5.25, 3.99 (mean 4.62; controls 3 of 9).
With EGDSLRYYAAN, GKNNRPI, SSRDSSGFQEF the result was 3.30, 2.97, 4.13 (mean 3.47; controls 4 of 9).
With EGDSLRYHYAN, GKNNVPS, SSRDSVGFQVF the result was 1.86, 1.73, 1.02 (mean 1.54; controls 3 of 9).
With EGESIRYYYAN, GKNNRPS, SSRDSSGFQVF the result was 2.83, 2.61, 2.71 (mean 2.72; controls 4 of 9).
With EGDSLRYYYAN, GKNNRPS, SMRDSYYFQVF the result was 3.62, 2.93, 3.38 (mean 3.31; controls 2 of 9).
With EGDSLRYYYMN, GKKNRPS, SLRDSSGFQVF the result was ND, ND, ND (controls 2 of 9).
With EGDTLRYYYHN, GKNNRPS, SSSDSSGFQVF the result was 4.44, ND, 3.51 (mean 3.98; controls 2 of 9).
With EGDSLRYYYAN, GKNNRWS, SLRDSSGFKVF the result was 4.79, ND, ND (controls 1 of 9).
With EGDSLRYYYAN, GKINQPS, SSRDSSGFQKF the result was ND, ND, ND (controls 0 of 9).
With EGDSLRYYYAN, GKNCRPS, SSRGSSGFGVF the result was ND, 4.36, ND (controls 1 of 9).
With EGDSLRYYHAN, GKNCRPS, SSRDSSGFQVN the result was 2.43, ND, 2.87 (mean 2.65; controls 1 of 9).
With EGDSLRYNYAN, GKNYRPS, SSRDSSGFWVF the result was 2.22, 1.94, 1.44 (mean 1.87; controls 4 of 9).
With EMDSLRYYYAN, GKNNRPS, SSRDSSGFTVY the result was 3.66, 5.58, 3.35 (mean 4.20; controls 2 of 9).
With EGDMLRYYYAN, GKNNRPV, SSRDSRGFQVF the result was 4.06, ND, ND (controls 2 of 9).
With EGDSLRYMYSA, GKNNRPS, SSRDSSGFQVF the result was 2.92, 3.20, 3.23 (mean 3.11; controls 5 of 9).
With WGDCLRYYYAN, GKNNSPS, SSRDSSGFQVF the result was 4.09, ND, ND (controls 5 of 9).
With EGDSLRYNYAN, GKNNRPA, SSRKSSGFQVF the result was 0.84, 0.77, 0.14 (mean 0.59; controls 3 of 9).
With EGDSLLYYYAN, GKNFRPS, SSRDSSGGQVF the result was 2.87, ND, 2.94 (mean 2.91; controls 5 of 9).
With EGDSLVYMYAN, GKNNRPY, SSRDSSGFQVF the result was 2.87, 3.13, 3.17 (mean 3.06; controls 1 of 9).
With EGISLRYYYAN, GKNNRHS, SSRDSSPFQVF the result was 4.54, 3.62, 3.95 (mean 4.04; controls 4 of 9).
With EGDSVRYYYEN, GKNNRPS, SSRDSSGFQKF the result was ND, ND, ND (controls 4 of 9).
With HGDSLRFYYVN, GKNNRPS, SSRDSSGFQVF the result was 3.04, 2.86, 3.02 (mean 2.97; controls 2 of 9).
With EGDSLRYYYAN, GKNNRPS, SSRDSRGFGFF the result was 2.17, 1.86, 1.60 (mean 1.88; controls 2 of 9).
With EGDSKRYYMAN, GKNNRPS, SSGDSSGFQVF the result was ND, ND, ND (controls 1 of 9).
With GGDSLRYYNAN, GKNNRPS, SSRDSSPFQVF the result was ND, 3.41, 4.44 (mean 3.93; controls 2 of 9).
With PGDSLRYVYAN, GKNNRPS, SSRDSYGFQVF the result was 4.46, ND, ND (controls 2 of 9).
With EGDVLRYYYAN, GKNNRPS, SSQSSSGFQVF the result was 3.92, 3.11, ND (mean 3.52; controls 5 of 9).
With EGDSLRYYYAN, CKNNRGS, SHRDSSGFQVF the result was 3.89, ND, ND (controls 3 of 9).
With EKDSLRYYYRN, GKYNRPS, SSRDSSGFQVF the result was 3.99, ND, 3.51 (mean 3.75; controls 1 of 9).
With EGDSWRCYYAN, GKNNRPS, SSADSSGFQVF the result was 3.60, ND, ND (controls 2 of 9).
With EGDSLRYYYAN, GKNLRPS, HSDDSSGFQVF the result was 2.12, 2.08, 2.52 (mean 2.24; controls 1 of 9).
With EGDSLRYKYAN, DKNNRPS, SSRDSSGFQVQ the result was 1.62, 1.66, 1.39 (mean 1.55; controls 0 of 9).
With MGDSLRYQYAN, TKNNRPS, SSRDSSGFQVF the result was 1.60, 1.64, 0.90 (mean 1.38; controls 4 of 9).
With EGDSLRYYYAN, GKNNRPS, SSRDSKGCQVF the result was 2.88, 3.13, 2.93 (mean 2.98; controls 5 of 9).
With EVDSLRYVYAN, GKNIRPS, SSRDSSGFQVF the result was 2.13, 3.36, 2.40 (mean 2.63; controls 2 of 9).
With EGDSLRYYYAN, GKNNRPT, SNRDTSGFQVF the result was 3.05, 2.91, 2.97 (mean 2.98; controls 1 of 9).

Repeated from above, the 5 best binders with a signal in all replicates:

CDR-L1,CDR-L2,CDR-L3,"log10 Kd, replicates",mean log10 Kd (nM),signal with controls
EGDSLRYNYAN,GKNNRPA,SSRKSSGFQVF,"0.84, 0.77, 0.14",0.59,3/9
MGDSLRYQYAN,TKNNRPS,SSRDSSGFQVF,"1.60, 1.64, 0.90",1.38,4/9
EGDSLRYHYAN,GKNNVPS,SSRDSVGFQVF,"1.86, 1.73, 1.02",1.54,3/9
EGDSLRYKYAN,DKNNRPS,SSRDSSGFQVQ,"1.62, 1.66, 1.39",1.55,0/9
EGDSLRYNYAN,GKNYRPS,SSRDSSGFWVF,"2.22, 1.94, 1.44",1.87,4/9